Test results reported in patent publication US8178083B2, “Treatment of optic neuritis” (Ares Trading, S.A., priority 2005, dated 2012).

Assays:
[1] = tested on: Vesicular Stomatitis virus in WISH cells; assay type: cell-based
[2] = tested on: patient with demyelinating optic neuritis and remitting/relapsing MS; assay: Example 1 case study, optical coherence tomography (OCT) in optic neuritis associated with MS; assay type: in vivo, human
From the text: Objective: To evaluate effect of subcutaneous interferon beta-1a (Rebif) on axonal loss/survival in demyelinating optic neuritis (ON) associated with multiple sclerosis (MS) using optical coherence tomography (OCT). A case study is presented.
Methods: The patient underwent a standard neuro-ophthalmic examination, including visual acuity, afferent pupil defect, intraocular pressure, and color vision testing. MRI assessed brain and spinal cord lesion load. For purposes of analysis, each eye was divided into 12 sectors and OCT measurements were taken at baseline, 3-, 6-, 9- and 12-months. Results: A person presented with unilateral ON in the right eye, and was treated with high dose intravenous methylprednisolone according to the Optic Neuritis Treatment Trial protocol. The patient was asymptomatic for over 4 years, then presented with ON in the left eye and a large hyperintense MRI brain lesion. […] Upon diagnosis with remitting/relapsing MS, the patient was treated with methylprednisolone, followed by Rebif sc 44 mcg tiw. […] Conclusions: OCT is a reliable and non-invasive means of quantifying axon loss/survival. […] RFNL thickness in the unaffected eye may decrease over time. […] Early diagnosis and aggressive treatment with IFN beta may improve long-term clinical outcomes.

[3] = tested on: patients with RRMS and unilateral ON; assay: Example 2 serial OCT open label proof-of-concept study in RRMS and unilateral optic neuritis; assay type: in vivo, human; details: pulse IV MP followed by Rebif titrated to 44 mcg tiw; for number of sectors (of 12 per eye) with significantly decreased RNFL thickness: clinically affected eyes
From the text: Objective: Optical coherence tomography (OCT) measures retinal nerve fiber layer (RNFL) thickness. This study used serial OCT in patients with remitting/relapsing multiple sclerosis (RRMS) and optic neuritis (ON) to assess axonal changes concurrent with high dose, high frequency interferon beta-1a sc (Rebif) therapy. Methods: Patients (N=18) in this ongoing prospective open label proof-of-concept study were included if they had RRMS and unilateral ON and were excluded if they had edema of the optic nerve at baseline or were currently treated with other DMTs. Patients were treated with pulse IV methylprednisolone (MP) according to the Optic Neuritis Treatment Trial protocol, followed immediately by Rebif at 22 mcg tiw titrated to 44 mcg tiw within 2 weeks. RNFL thickness was measured at 12 sectors per eye with Stratus OCT at baseline, 3, 6, 9, and 12 months. Paired t-tests compared changes from baseline to each time point for affected and unaffected eyes separately. MRI data were analyzed for correlation with OCT in each eye type. Response (>4% increase from baseline) was analyzed by sector and number of responding sectors in each eye type.

[4] = methylprednisolone followed by Rebif sc 44 mcg tiw

interferon beta-1a [Rebif]
antiviral activity contained ([1]; Rebif 44 mcg): approximately 12 MIU
specific activity (antiviral activity) ([1]; reference standard calibrated against WHO natural interferon beta standard): approximately 270 million international units (M
relapse-free period ([2]; Rebif sc 44 mcg tiw): 24 months
tolerability ([2]; Rebif sc 44 mcg tiw): well tolerated
new MRI lesions ([2]; during the last 24 months, Rebif sc 44 mcg tiw): without evidence of new MRI lesions
serial OCT analysis, RNFL thickness, left eye ([2]; left eye, methylprednisolone followed by Rebif sc 44 mcg tiw): slow increase in RNFL thickness in a subset of sectors
MRI brain lesion [2, 4]: resolved with a small area of decreased signal intensity
visual measures [2, 4]: improved
serial OCT analysis, right eye ([2]; right eye (earlier ON), methylprednisolone followed by Rebif sc 44 mcg tiw): continued axonal loss
number of sectors (of 12 per eye) with significantly decreased RNFL thickness ([3]; by 3 months): 5 sectors
number of sectors (of 12 per eye) with significantly decreased RNFL thickness ([3]; by last post-baseline visit (up to 12 months)): 6 sectors
change of RNFL thickness ([3]; clinically unaffected eyes, at 3 months or last post-baseline visit): no significant changes
